Laboratory results published in PubChem BioAssay AID602248 (The Scripps Research Institute Molecular Screening Center, 2012).
The list shows a part of the results, in another mix than the full data. Some of these compounds have results that are not shown, active ones among them. Calls of active or inactive are those of the source. No stated cut-off is given here; in the data, active means activation above about 15%; inactive means the rest.

Assay: counter-screen for M1 agonists: effect in parental CHO-K1 cells (AID 602248);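 further: untransfected CHO-K1 host cells lacking M1 receptor as counterscreen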
Conditions: Fluo-8 calcium fluorescence, at 3 µM, hits give high values, scaled to maximal ATP response, vehicle zero

SMILES	activation
C=CCN1CCN(CCOC(=O)C(O)(c2ccccc2)c2ccccc2)CC1	inactive: -0.06%
O=C(NCC1(N2CCCCC2)CCCCC1)c1cc(F)c(F)cc1Cl	inactive: -0.37%
COc1ccc(C(=O)NCC2(N(C)C)CCCCC2)cc1	inactive: 1.44%
Cc1cc(C(=O)NCC2(N3CCCCC3)CCCCC2)ccc1[N+](=O)[O-]	inactive: 2.87%
CCN1CCCC(OC(=O)C2(O)c3ccccc3C=Cc3ccccc32)C1 (stereo unspecified)	inactive: 0.65%
O=C(NCC1(N2CCCCC2)CCCCC1)c1cccc(Br)c1	inactive: 0.24%
Cc1ccccc1C(=O)NCC1(N2CCCCC2)CCCCC1	inactive: 0.63%
CN(C)C1CCCC1OC(=O)C(O)(c1ccccc1)c1ccccc1 (stereo unspecified)	inactive: 0.13%
CN(C)c1ccc(C(=O)NCC2(N(C)C)CCCCC2)cc1	inactive: -0.31%
CCN(CC)CC(C)C(C)OC(=O)C(O)(c1ccccc1)c1ccccc1 (stereo unspecified)	inactive: 1.74%
COc1cc(SC)ccc1C(=O)NCC1(N(C)C)CCCCC1	inactive: 0.46%
CC(C)N1C(=O)CC2(CCN(CCOC(=O)C(O)(c3ccccc3)c3ccccc3)CC2)C1=O	inactive: 1.76%
Cc1ccc(C(=O)NCC2(N3CCCCC3)CCCCC2)cc1	inactive: -0.19%
O=C(NCC1(N2CCCCC2)CCCCC1)c1cc([N+](=O)[O-])ccc1Cl	inactive: 0.45%
CN1[C@@H]2CC[C@H]1CC(OC(=O)C(O)(c1ccccc1)c1ccccc1)C2 (stereo partly specified)	inactive: 1.5%
C=C(C)C#CC(O)(C(=O)OC1CCN(C)CC1)c1ccccc1 (stereo unspecified)	inactive: 0.01%
COc1ccc(Br)c(C(=O)NCC2(N3CCCCC3)CCCCC2)c1	inactive: 0.48%
CC(C)Oc1ccc(C(=O)NCC2(N(C)C)CCCCC2)cc1	inactive: 0.5%
O=C(OCCN1CCCC1)C(O)(c1ccccc1)c1ccccc1	inactive: 0.32%
CN(C)c1cccc(C(=O)NCC2(N(C)C)CCCCC2)c1	inactive: -0.1%
O=C(OC1CN2CCC1CC2)C(CO)(c1ccccc1)c1ccccc1 (stereo unspecified)	inactive: 0.63%
COc1cccc(C(=O)NCC2(N3CCCCC3)CCCCC2)c1	inactive: 0.51%
COc1ccc(Cl)cc1C(=O)NCC1(N(C)C)CCCCC1	inactive: 1.37%
O=C(NCC1(N2CCCCC2)CCCCC1)c1cccc(Cl)c1	inactive: 0.45%
CN(C)C1(CNC(=O)c2ccc(Br)cc2)CCCCC1	inactive: 0.55%
COc1cc(C(=O)NCC2(N(C)C)CCCCC2)c([N+](=O)[O-])cc1OC	inactive: 1.3%
